“And” between values parts separate entries of the source, which are not always exact repeats. Equal values may be shown once. Read-outs that look alike come from different tables or passages of the source.
Assays:
Assay in all cases: biochemical
Format in all cases: binding
HLA-A*0202 = HLA-A*0202 (Homo sapiens, UniProt P04439, D140Y/D185E/D98H/E176V/E277Q/G131W/G231S/I119L/I121R/I166T/I218V/L180W/L300P/L318F/N151K/N90K/P208A/P217A/Q67R/Q86G/Q94H/R138H/R169H/T345S)
HLA-DR DRB1*0405 (DR4) = HLA-DR DRB1*0405 (DR4) (Homo sapiens, UniProt P01903+P01911, A100R/A169T/D86S/F76Y/I96L/K127E/L162R/M171V/N62H/P40V/Q125Y/R42H/S133A/S149N/S66Y/V115G/V209L/W38E); details: DRB1 *0405
HLA-DR DRB1*1302 (DR13) = HLA-DR DRB1*1302 (DR13) (Homo sapiens, UniProt P01903+P01911, A100E/A169T/K41T/L162R/M171V/P40S/Q125H/Q178H/Q39Y/Q99D/R42S/S66N/T262R/V115G/W38E/Y61H); details: DRBI *1302
HLA-A*0201 = HLA-A*0201 (Homo sapiens, UniProt P04439, D140Y/D185E/D98H/E176V/E277Q/G131W/G231S/I119V/I121R/I166T/I218V/L300P/L318F/N151K/N90K/P208A/P217A/Q86G/Q94H/R138H/R169H/T345S); details: A*0201 binding affinity (expressed as an IC50)
HLA-DR DRB4*0101 (DR53) = HLA-DR DRB4*0101 (DR53) (Homo sapiens, UniProt P01903+P13762, G164S); details: DRB4 *0101
HLA-DR DRB1*0101 (DR1) = HLA-DR DRB1*0101 (DR1) (Homo sapiens, UniProt P01903+P01911, A100R/D57E/F55L/F60I/F76Y/I96L/L162R/M171V/P40L/Q125E/R42F/V115G/Y59C); details: DRB1 *0101
HLA-DR DRB1*0701 (DR7) = HLA-DR DRB1*0701 (DR7) (Homo sapiens, UniProt P01903+P01911, A100R/A102G/A103Q/D57E/D86V/E43K/F76Y/K127E/L162R/M171V/P40G/Q125H/Q99D/R33Q/R42Y/R54Q/S133A/S66F/T210M/V115G/Y107V/Y59L/Y89S); details: DRB1 *0701
HLA-DR DRB1*1501 (DR15) = HLA-DR DRB1*1501 (DR15) (Homo sapiens, UniProt P01903+P01911); details: DRBI *1501
HLA-DR DRB5*0101 (DR51) = HLA-DR DRB5*0101 (DR51) (Homo sapiens, UniProt P01903+Q30154); details: DRB5 *0101
HLA-DR DRB1*0401 (DR4) = HLA-DR DRB1*0401 (DR4) (Homo sapiens, UniProt P01903+P01911, A100K/A169T/F76Y/I96L/K127E/L162R/M171V/N62H/P40V/Q125Y/R42H/S133A/S149N/S66Y/V115G/V209L/W38E); details: DRB1 *0401
HLA-DR DRB1*1101 (DR11) = HLA-DR DRB1*1101 (DR11) (Homo sapiens, UniProt P01903+P01911, A100R/A169T/A87E/I96F/K41T/L162R/M171V/P40S/Q125H/Q178H/Q39Y/Q99D/R42S/S66Y/T262R/V115G/W38E); details: DRB1 *1101
HLA-DR DRB3*0101 (DR52) = HLA-DR DRB3*0101 (DR52) (Homo sapiens, UniProt P01903+P79483)
HLA-DR DRB1*0901 (DR9) = HLA-DR DRB1*0901 (DR9) (Homo sapiens, UniProt P01903+P01911, A100R/A103E/D57H/D86V/F55Y/F60I/F76Y/I96F/K127E/L162R/M171V/P40D/Q125H/Q99R/R33Q/R42F/S133A/S66N/T210M/V115G/W38K/Y107V/Y59G/Y89S); details: DRB1 *0901
HLA-DR DRB1*0802 (DR8) = HLA-DR DRB1*0802 (DR8) (Homo sapiens, UniProt P01903+P01911, A100R/A103L/A169T/F76Y/H45Y/I96F/K41T/L162R/M171V/P40S/Q125H/Q178H/Q39Y/Q99D/R218S/R42G/S66Y/V115G/W38E)
[1] = A*0202 binding affinity (expressed as an IC50)

Amino acid sequences for entries named in this document (tags omitted). A change or cut given only in a name is not applied to a line headed by its entry. Residues count along the entry.
UniProt P04439: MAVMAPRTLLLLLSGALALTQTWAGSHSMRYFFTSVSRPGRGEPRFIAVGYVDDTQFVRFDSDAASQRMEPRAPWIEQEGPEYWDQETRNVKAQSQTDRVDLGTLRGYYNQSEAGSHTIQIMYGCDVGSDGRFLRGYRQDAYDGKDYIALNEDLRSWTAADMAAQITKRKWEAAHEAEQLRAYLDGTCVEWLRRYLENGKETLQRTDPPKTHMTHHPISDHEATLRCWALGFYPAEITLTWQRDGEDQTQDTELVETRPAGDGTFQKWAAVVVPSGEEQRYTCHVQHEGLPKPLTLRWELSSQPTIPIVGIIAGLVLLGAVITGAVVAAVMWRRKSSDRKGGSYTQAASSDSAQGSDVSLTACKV
UniProt Q30154, 30-266: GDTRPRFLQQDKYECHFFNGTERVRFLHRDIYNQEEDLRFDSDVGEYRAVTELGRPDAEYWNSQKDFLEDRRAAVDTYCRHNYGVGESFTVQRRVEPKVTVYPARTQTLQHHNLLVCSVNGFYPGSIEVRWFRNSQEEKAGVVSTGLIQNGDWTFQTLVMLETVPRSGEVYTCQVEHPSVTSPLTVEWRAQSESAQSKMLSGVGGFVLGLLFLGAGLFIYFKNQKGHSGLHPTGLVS
UniProt P79483, 30-266: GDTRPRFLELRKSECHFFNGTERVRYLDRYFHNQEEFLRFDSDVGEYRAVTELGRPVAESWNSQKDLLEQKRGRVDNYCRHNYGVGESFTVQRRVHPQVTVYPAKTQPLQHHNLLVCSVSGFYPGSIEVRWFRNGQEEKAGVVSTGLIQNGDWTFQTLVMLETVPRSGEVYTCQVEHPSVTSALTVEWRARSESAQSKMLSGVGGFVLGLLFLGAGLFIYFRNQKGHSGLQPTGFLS

CC(C)C[C@H](NC(=O)[C@H](C)N)C(=O)N[C@@H](Cc1ccccc1)C(=O)N1CCC[C@H]1C(=O)N1CCC[C@H]1C(=O)N[C@@H](CCC(=O)O)C(=O)NCC(=O)N[C@H](C(=O)N[C@@H](CO)C(=O)N[C@H](C(=O)O)C(C)C)C(C)C was tested. Which IC50 (HLA-A*0202; [1]) did it give?
The IC50 was 1.1 nM.

Which results are given for CC[C@H](C)[C@H](NC(=O)[C@H](CCC(=O)O)NC(=O)[C@H](CO)NC(=O)[C@H](CC(C)C)NC(=O)[C@@H]1CCCN1C(=O)[C@H](CCCCN)NC(=O)[C@H](CCCCN)NC(=O)[C@@H](NC(=O)[C@H](CCCNC(=N)N)NC(=O)[C@H](CCC(=O)O)NC(=O)[C@@H](N)CCC(=O)O)C(C)C)C(=O)N[C@H](C(=O)N[C@H](C(=O)N[C@@H](CCCNC(=N)N)C(=O)N[C@@H](CS)C(=O)O)[C@@H](C)CC)[C@@H](C)O?
IC50 (HLA-DR DRB1*0405 (DR4)): 1.47 µM; IC50 (HLA-DR DRB1*1302 (DR13)): 8.92 µM

CC(C)C[C@H](NC(=O)CNC(=O)[C@H](Cc1ccc(O)cc1)NC(=O)[C@@H](NC(=O)[C@@H](N)CCCCN)C(C)C)C(=O)N[C@@H](CO)C(=O)N[C@@H](C)C(=O)N[C@@H](Cc1ccccc1)C(=O)N[C@H](C(=O)O)C(C)C was tested. Which IC50 (HLA-A*0201) did it give?
The IC50 was 33 nM.

For CC(C)C[C@H](NC(=O)[C@H](C)NC(=O)[C@H](CC(C)C)NC(=O)[C@@H](N)CC(C)C)C(=O)N[C@@H](Cc1ccccc1)C(=O)N1CCC[C@H]1C(=O)N1CCC[C@H]1C(=O)N[C@@H](CCC(=O)O)C(=O)NCC(=O)N[C@H](C(=O)O)C(C)C, which IC50 (HLA-A*0202; [1]) is on record?
The IC50 was 0.73 nM.

CC[C@H](C)[C@H](NC(=O)[C@H](CCC(=O)O)NC(=O)[C@H](CCC(N)=O)NC(=O)[C@H](CCCNC(=N)N)NC(=O)[C@H](CCCCN)NC(=O)[C@H](CCCCN)NC(=O)[C@H](CO)NC(=O)[C@H](Cc1ccc(O)cc1)NC(=O)[C@H](CC(C)C)NC(=O)[C@@H](N)CC(C)C)C(=O)O was tested. Which IC50 (HLA-A*0202) did it give?
Its IC50 is 382 nM.

With CC[C@H](C)[C@H](NC(=O)[C@H](CC(C)C)NC(=O)[C@@H](NC(=O)[C@H](CCC(=O)O)NC(=O)[C@@H](N)CC(N)=O)[C@@H](C)CC)C(=O)N[C@@H](CCCNC(=N)N)C(=O)N[C@@H](CS)C(=O)N[C@H](C(=O)N[C@H](C(=O)N[C@@H](CS)C(=O)N[C@@H](CCC(N)=O)C(=O)N[C@@H](CCCNC(=N)N)C(=O)N1CCC[C@H]1C(=O)N[C@@H](CC(C)C)C(=O)N[C@@H](CS)C(=O)O)[C@@H](C)CC)[C@@H](C)CC as the compound, how does the IC50 (HLA-DR DRB4*0101 (DR53)) read?
The IC50 was 883 nM and 372 nM.

What about the IC50 (HLA-DR DRB1*0405 (DR4)) of the same compound?
The IC50 was 7.7 µM and 4.62 µM.

And the IC50 (HLA-DR DRB1*0101 (DR1))?
Its IC50 is 7.94 µM and 11 µM.

What about the IC50 (HLA-DR DRB1*0701 (DR7)) of the same compound?
The IC50 was 16.9 µM and 18.9 µM.

What about the IC50 (HLA-DR DRB1*1501 (DR15)) of the same compound?
The IC50 was 18.9 µM and 8.18 µM.

What about the IC50 (HLA-DR DRB5*0101 (DR51)) of the same compound?
Its IC50 is > 29.8 µM.

And the IC50 (HLA-DR DRB1*0401 (DR4))?
Its IC50 is 11.7 µM and 14.1 µM.

And the IC50 (HLA-DR DRB1*1101 (DR11))?
Its IC50 is 20.8 µM and 16.1 µM.

And the IC50 (HLA-DR DRB1*1302 (DR13))?
The IC50 was 7.17 µM and 10.2 µM.

CC[C@H](C)[C@H](NC(=O)[C@H](CC(N)=O)NC(=O)[C@H](CCC(=O)O)NC(=O)[C@@H](N)CC(N)=O)C(=O)N[C@H](C(=O)N[C@H](C(=O)N1CCC[C@H]1C(=O)N[C@@H](CC(=O)O)C(=O)N[C@H](C(=O)N[C@@H](CCCCN)C(=O)N[C@H](C(=O)N[C@@H](CC(N)=O)C(=O)N[C@@H](Cc1ccccc1)C(=O)N[C@@H](Cc1ccc(O)cc1)C(=O)N[C@@H](C)C(=O)O)C(C)C)[C@@H](C)O)C(C)C)[C@@H](C)O was tested. Which IC50 (HLA-DR DRB4*0101 (DR53)) did it give?
The IC50 was > 38500 nM.

And the IC50 (HLA-DR DRB1*0405 (DR4))?
Its IC50 is > 18.6 µM.

What about the IC50 (HLA-DR DRB1*0101 (DR1)) of the same compound?
The IC50 was > 24.2 µM.

What about the IC50 (HLA-DR DRB1*0701 (DR7)) of the same compound?
The IC50 was 42.8 µM.

What about the IC50 (HLA-DR DRB3*0101 (DR52)) of the same compound?
Its IC50 is > 38.2 µM.

And the IC50 (HLA-DR DRB1*0401 (DR4))?
The IC50 was > 21.4 µM.

And the IC50 (HLA-DR DRB1*0901 (DR9))?
The IC50 was > 78.9 µM.

How did the IC50 (HLA-A*0201) turn out when CSCC[C@H](NC(=O)[C@H](CC(C)C)NC(=O)CNC(=O)[C@@H]1CCCN1C(=O)CNC(=O)[C@@H]1CCCN1C(=O)CNC(=O)[C@H](CC(C)C)NC(=O)[C@@H](N)CCC(N)=O)C(=O)N[C@@H](CCC(=O)O)C(=O)N[C@H](C(=O)O)C(C)C was run?
Its IC50 is 194 nM.

CC(C)C[C@H](NC(=O)[C@H](CO)NC(=O)[C@@H](NC(=O)[C@H](CCC(N)=O)NC(=O)[C@@H]1CCCN1C(=O)[C@H](CC(N)=O)NC(=O)[C@H](CCC(N)=O)NC(=O)[C@H](CC(C)C)NC(=O)[C@H](Cc1ccccc1)NC(=O)[C@@H](N)CO)[C@@H](C)O)C(=O)N[C@@H](CS)C(=O)N[C@@H](Cc1ccccc1)C(=O)N[C@@H](CO)C(=O)N[C@@H](CCC(=O)O)C(=O)N[C@@H](CO)C(=O)O was tested. Which IC50 (HLA-DR DRB1*0405 (DR4)) did it give?
The IC50 was > 25.8 µM.

What about the IC50 (HLA-DR DRB1*0802 (DR8)) of the same compound?
The IC50 was > 33.3 µM.

What about the IC50 (HLA-DR DRB1*0701 (DR7)) of the same compound?
The IC50 was 48.6 µM.

And the IC50 (HLA-DR DRB3*0101 (DR52))?
The IC50 was 93.8 µM.

What about the IC50 (HLA-DR DRB5*0101 (DR51)) of the same compound?
The IC50 was > 9.65 µM.

What about the IC50 (HLA-DR DRB1*1101 (DR11)) of the same compound?
The IC50 was > 15.4 µM.

And the IC50 (HLA-DR DRB1*0901 (DR9))?
Its IC50 is 93.9 µM.

How did the IC50 (HLA-A*0201) turn out when CC(C)C[C@H](NC(=O)[C@H](CO)NC(=O)[C@H](CC(C)C)NC(=O)[C@@H](N)CO)C(=O)NCC(=O)N[C@@H](Cc1ccccc1)C(=O)N[C@@H](CC(C)C)C(=O)N[C@@H](Cc1ccccc1)C(=O)N[C@@H](CC(C)C)C(=O)N[C@H](C(=O)O)C(C)C was run?
Its IC50 is 1.9 nM.

What does the source list for CC[C@H](C)[C@H](NC(=O)[C@@H](NC(=O)[C@H](CCC(=O)O)NC(=O)[C@H](CC(N)=O)NC(=O)[C@H](Cc1c[nH]c2ccccc12)NC(=O)CNC(=O)[C@@H](NC(=O)[C@H](CO)NC(=O)[C@H](CO)NC(=O)[C@H](CO)NC(=O)[C@H](CC(=O)O)NC(=O)[C@H](CCC(N)=O)NC(=O)[C@@H](N)CCCNC(=N)N)[C@@H](C)O)[C@@H](C)O)C(=O)N[C@H](C(=O)N[C@@H](CCC(=O)O)C(=O)O)C(C)C [RQDSSSTGWNETIVE]?
IC50 (HLA-DR DRB1*0405 (DR4)): 40.8 µM; IC50 (HLA-DR DRB1*0101 (DR1)): > 102 µM; IC50 (HLA-DR DRB1*0701 (DR7)): 36.3 µM; IC50 (HLA-DR DRB1*1501 (DR15)): > 190 µM; IC50 (HLA-DR DRB1*1101 (DR11)): > 42.6 µM

Source: patent US20060079453A1, “Hla binding peptides and their uses” (priority 2002, published 2006)
